Target: T1, Myc-GRPR (Mus musculus, UniProt P21729)
T1 construct: expressed in transfected cells
Assay: Receptor internalization assay (ELISA, immunofluorescence staining) in HEK 293 cells: GRPR
Type: cell-based
Settings: HEK 293 cells expressing GRPR alone; agonist 1 μM, 30 min

Amino acid sequences for entries named in this document (tags omitted). A change or cut given only in a name is not applied to a line headed by its entry.
UniProt P21729: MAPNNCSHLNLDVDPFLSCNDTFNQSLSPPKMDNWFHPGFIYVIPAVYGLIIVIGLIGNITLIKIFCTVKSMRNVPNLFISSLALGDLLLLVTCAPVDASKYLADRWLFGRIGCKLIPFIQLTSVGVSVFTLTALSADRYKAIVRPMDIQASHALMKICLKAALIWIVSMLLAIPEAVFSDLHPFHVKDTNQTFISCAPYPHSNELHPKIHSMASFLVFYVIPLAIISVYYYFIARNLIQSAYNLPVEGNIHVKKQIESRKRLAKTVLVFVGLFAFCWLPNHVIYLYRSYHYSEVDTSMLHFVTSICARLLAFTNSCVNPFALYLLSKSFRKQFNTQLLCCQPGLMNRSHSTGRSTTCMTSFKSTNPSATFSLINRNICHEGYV

Question: With gastrin-releasing peptide [GRP] as the substance, how does the “agonist-induced GRPR internalization” value read?
Answer: The value was “induced endocytosis of GRPR”.

From US8957024B2, “Composition and methods for reducing opioid-induced pruritus” (priority 2011, dated 2015)
